Only a part is listed here, and it is no random draw. Records with an inconclusive call do not appear. Some salts and complexes are drawn in separate pieces, as the source files them; their charges need not balance. The source made the active and inactive calls. Calls follow the shape of the dose curve; as a rule, active = well fitted curve in the direction sought with a large enough effect in the polarisation (not every such curve was filed as active); inconclusive = small, poorly fitted or top-dose-only effect, or effect the other way, or a change in a side signal; inactive = no such curve, though single readings can be large or run the other way; the % refers to the polarisation.

A short description of this experiment: qHTS Assay for Inhibitors Targeting the Menin-MLL Interaction in MLL Related Leukemias: Competition With Fluorescein Labeled MLL-derived Peptide. Also: % of control where 0% means no effect. The settings on record: Fluorescence polarization, fluorescein-MLL peptide displacement from menin; at 61.4 µM (top of the series). For orientation: In qHTS, concentration-response curves come from the screen itself.
For the molecule `Fc1ccccc1NC1CCN(Cc2ccccc2)CC1`, the FP activity change was inactive: -0.877%. Next, `CCN1CCC(Nc2cccc(F)c2)CC1`: inactive: 2.51%. On to `CN(C)c1ccc(C(=O)NCC2(N3CCCCC3)CCCCC2)cc1`, for which the FP activity change is inactive: -2.6%.

Consider `CCOc1ncccc1C(=O)NCC1(N2CCOCC2)CCCCC1`, for which the FP activity change is inactive: 2.23%. To `CN1CCC(Nc2ccc(F)c(Cl)c2)CC1` belongs inactive: -3.06%; to `CC(C)(C)OC(=O)N1CCC(Nc2ccccc2)CC1`, inactive: 1.8%; to `O=C(O)C1(Nc2ccccc2)CCN(Cc2ccccc2)CC1`, inactive: -4.04%.

Take `CCCOc1ccc(C(=O)NCC2(N(C)C)CCCCC2)cc1`: the FP activity change is inactive: 2.47%. With `COc1cccc(C(=O)N(c2cc(C)cc(C)c2)C2CCN(C(=O)OC(C)(C)C)CC2)c1`, the FP activity change was inactive: -6.42%. For the molecule `COc1cc(OC)cc(C(=O)NCC2(N3CCOCC3)CCCCC2)c1`, the FP activity change is inactive: 6.76%.

For `CCC(CO)(C(=O)OC1CN2CCC1CC2)c1ccccc1` (stereo not drawn), the FP activity change is inactive: 2.22%. To `CN1CCC(Nc2ccc(Cl)cc2)CC1` belongs inactive: -2.66%. As to `CCCOc1ccc(C)cc1CN(CCCl)CCCl`, the FP activity change was inactive: 9.75%. For the molecule `COc1ccc(C(=O)NCC2(N3CCOCC3)CCCCC2)cc1OC`, the FP activity change is inactive: 3.28%. Next, `CCOC(=O)N1CCC(Nc2ccc(C)cc2)CC1`: inactive: -1.65%. To `N/C(=N\O)c1c(N)no[n+]1[O-]` belongs inactive: 1.67%. Regarding `O=C(OC1CN2CCC1CC2)C1c2ccccc2C=Cc2ccccc21` (stereo not drawn), the FP activity change was inactive: 2.95%. Next, `O=C(O)c1cccc(Nc2c([N+](=O)[O-])cc([N+](=O)[O-])cc2[N+](=O)[O-])c1`: inactive: -1.58%. To `N#Cc1ccc(C(=O)NCC2(N3CCCCC3)CCCCC2)cc1` belongs inactive: -2.04%. Consider `CC(C)(C)OC(=O)N1CCC(N(C(=O)c2ccccc2)c2ccc(Cl)cc2)CC1`, for which the FP activity change is inactive: 5.13%. To `CCOC(=O)C(CC)C1=NC(C)(C)Cc2ccccc21.O=[N+]([O-])c1cc([N+](=O)[O-])c(O)c([N+](=O)[O-])c1` (stereo not drawn) belongs inactive: 1.14%. Next, `CN(C)C1(CNC(=O)c2cccc(C#N)c2)CCCCC1`: inactive: 0.977%; `c1ccc(CN2CCC(Nc3ccccc3)CC2)cc1`: inactive: -0.276%.

Turning to `CCCN1CCC(Nc2cc(OC)cc(OC)c2)CC1`, the FP activity change is inactive: -10.3%. For the molecule `O=C(NCC1(N2CCCCC2)CCCCC1)c1ccc(OC(F)F)cc1`, the FP activity change is inactive: -5.96%. Next, `CCN1CCC(Nc2ccc(Cl)cc2)CC1`: inactive: 2.25%. Next, `N#CC1(Nc2ccccc2)CCN(CCc2ccccc2)CC1`: inactive: -0.481%; `O=C(NCC1(N2CCCCC2)CCCCC1)c1cccc([N+](=O)[O-])c1`: inactive: 2.34%. Take `O=[N+]([O-])c1cc([N+](=O)[O-])c(NCC2CCS(=O)(=O)C2)c([N+](=O)[O-])c1` (stereo not drawn): the FP activity change was inactive: -1.54%. Regarding `O=C(NCC1(N2CCCCC2)CCCCC1)c1cccc(C(F)(F)F)c1`, the FP activity change was inactive: -0.252%. For `O=C(NCC1(N2CCOCC2)CCCCC1)c1cc(=O)[nH]c2ccccc12`, the FP activity change was inactive: -2.01%. To `COc1cc(C(=O)NCC2(N3CCCCC3)CCCCC2)ccc1OC(F)F` belongs inactive: 3.05%.

For the molecule `COc1ccc(NC2CCN(C(=O)OC(C)(C)C)CC2)cc1`, the FP activity change was inactive: 0.537%. In the case of `CN1CCN(CCOC(=O)C(O)(c2ccccc2)c2ccccc2)CC1`, the FP activity change was inactive: 5.98%.

With `CC(C)c1ccc(NC2CCN(C(=O)OC(C)(C)C)CC2)cc1`, the FP activity change was inactive: -2.13%. Next, `COc1ccc(CN(CCCl)CCCl)cc1Cl`: inactive: -1.26%. For `CN(C)c1cccc(C(=O)NCC2(N3CCCCC3)CCCCC2)c1`, the FP activity change was inactive: -0.727%.

As to `O=[N+]([O-])c1cc([N+](=O)[O-])c(OC2CCCCC2O)c([N+](=O)[O-])c1` (stereo not drawn), the FP activity change is inactive: -3.1%. To `COc1cc(OC)c(C(=O)NCC2(N(C)C)CCCCC2)cc1OC` belongs inactive: -2.78%. To `O=C(OC1CN2CCC1CC2)c1ccc([N+](=O)[O-])cc1` (stereo not drawn) belongs inactive: 0.612%; to `COc1ccc2c(c1O)-c1c(O)c(OC)cc3c1[C@H](C2)[N+](C)(C)CC3.O=[N+]([O-])c1cc([N+](=O)[O-])c([O-])c([N+](=O)[O-])c1[O-]`, inactive: -11.9%. In the case of `CCCOc1ccc(C(=O)NCC2(N(C)C)CCCCC2)cc1OC`, the FP activity change is inactive: -17.2%. To `COc1ccc(C(=O)NCC2(N3CCCCC3)CCCCC2)cc1` belongs inactive: 7.36%. Next, `CC(C)(C)OC(=O)N1CCC(N(C(=O)c2ccccc2)c2ccc(F)cc2)CC1`: inactive: -2.87%; `COc1ccc(C(=O)NCC2(N3CCCCC3)CCCCC2)c(OC)c1OC`: inactive: 9.89%; `O=C(NCC1(N2CCCCC2)CCCCC1)c1ccc(=O)[nH]c1`: inactive: 4.94%. To `Cc1cc(C)cc(N(C(=O)c2ccccc2)C2CCN(C(=O)OC(C)(C)C)CC2)c1` belongs inactive: -2.18%; to `O=C(NCC1(N2CCOCC2)CCCCC1)c1cc2ccccc2o1`, inactive: 1.52%. Consider `N#CC1(Nc2ccccc2)CCN(Cc2ccccc2)CC1`, for which the FP activity change is inactive: 0.811%. For `O=C(OC1CN2CCC1CC2)C1c2ccccc2Oc2ccccc21` (stereo not drawn), the FP activity change is inactive: -0.276%. To `CCOC(=O)N1CCC(Nc2ccc(OC)cc2)CC1` belongs inactive: -8.12%. For the molecule `CCOc1ccc(C)cc1CN(CCCl)CCCl`, the FP activity change is inactive: 1.36%. Turning to `O=C(NCC1(N2CCCCC2)CCCCC1)c1ccc(F)cc1`, the FP activity change is inactive: -5.81%. With `CCOC(=O)N1CCC(Nc2ccc(F)cc2)CC1`, the FP activity change is inactive: 1.8%. `COc1ccc(NC2CCN(CCc3ccccc3)CC2)c(OC)c1`: the FP activity change is inactive: -1.35%. On to `CCOC(=O)N1CCC(Nc2cccc(C)c2)CC1`, for which the FP activity change is inactive: -2.59%. To `COc1cc(C(=O)NCC2(N(C)C)CCCCC2)ccc1OC(F)F` belongs inactive: 0.631%; to `Cc1ccc(OCC(C)C)c(CN(CCCl)CCCl)c1`, inactive: 11.8%.

The values are drawn from PubChem BioAssay AID1766 (National Center for Advancing Translational Sciences (NCATS), 2009).
